These are literature values, as cited in EP4052553A1, “AGRICHEMICAL COMPOSITION FOR TREATING SEEDS AND USE THEREOF” (priority 2019, dated 2021).

The conditions of the data set: distilled water at 20°C.

As for oxadiargyl, the aqueous solubility is on record as 0.37 ppm.
